What follows are compounds tested against MNK2 (Homo sapiens, UniProt Q9HBH9) (assay: Mnk2a in vitro kinase assay (indirect fluorescence polarization)). Details: read-out: MNK2 IC50; pre-activated GST-Mnk2a 2.5 nM, 20 μM ATP, 30 μM substrate peptide.
Assay type: biochemical
Method: Inhibitory potency of compounds against Mnk1, Mnk2a and other kinases was assessed with assays based on a format known to those skilled in the art as the indirect (competitive) fluorescence polarization. The assay detection system comprises a small fluorophore-labeled phospho-peptide (termed ligand) bound to a phospho-specific antibody. The product generated by the kinase reaction competes with the ligand for antibody binding. Based on the larger molecular volume of the bound ligand, which results in a lower rotation rate in solution, its emitted light has a higher degree of polarization than the one from the free ligand.
Example 2a. Mnk1 and Mnk2a in vitro kinase assay
As a source of enzyme, human Mnk1 and human Mnk2a were expressed as GST fusion proteins in E. coli, purified to >80% homogeneity by glutathione affinity chromatography and activated in vitro with pre-activated ERK2. In brief, the open reading frames of human Mnk1 and Mnk2a were amplified from cDNA using the forward/reverse primer pairs
(utilized restriction sites underlined), respectively, and cloned into the BamHI and SalI sites of the vector pGEX-4T1 (Amersham, Sweden, cat. no. 27-4580-01). These constructs allow prokaryotic expression of Mnk1 or Mnk2a as fusion protein with a N-terminal glutathione S-transferase (GST) tag, referred to as GST-Mnk1 or GSTMnk2a. The following expression and purification procedure was identical for GSTMnk1 and GST-Mnk2a, referring in general to GST-Mnk, when not distinguishing between the two isoforms. Expression of GST-Mnk was in E. coli BL21 (Merck Biosciences, Germany, cat. no. 69449). Cells were grown in LB-Bouillon (Merck, Germany, cat. no. 1.10285) supplemented with 100 μg/ml ampicillin (Sigma, Germany, cat. no. A9518) at 37° C. When the culture had reached a density corresponding to an A600 of 0.8, an equal volume of ice cold LB/ampicillin was added, the culture transferred to 25° C. and induced for 4 h with 1 mM isopropyl thiogalactoside (IPTG, Roth, Germany, cat. no. 2316.4). Cells harvested by centrifugation were resuspended in 10 ml lysis buffer (50 mM tris(hydroxymethyl)aminomethane hydrochloride (Tris/HCl, Sigma, Germany, cat. no. T5941) pH 7.5, 300 mM sodium chloride (NaCl, Sigma, Germany, cat. no. S7653), 5% (w/v) glycerol (Sigma, Germany, cat. no. G5516), 3 mM DTT dithiotreitol (DTT, Sigma, Germany, cat. no. D9779)) per gram wet weight cell pellet. Lysates were prepared by disruption of cells with a sonifier and subsequent clearing by centrifugation at 38000 g for 45 min at 4° C.
The lysate was applied to a GSTPrep FF 16/10 column (Amersham, Sweden, cat. no. 17-5234-01) equilibrated with lysis buffer. Removal of unbound material was with 3 column volumes (CV) lysis buffer. Elution was with 2 CV of elution buffer (50 mM Tris/HCl pH 7.5, 300 mM NaCl, 5% (w/v) glycerol, 20 mM glutathione (Sigma, Germany, cat. no. G4251)). Peak fractions were pooled and the protein transferred into storage buffer (50 mM Tris/HCl pH 7.5, 200 mM NaCl, 0.1 mM ethylene glycolbis(2-aminoethylether)-N,N,N′,N′-tetraacetic acid (EGTA, Aldrich, Germany, cat. no. 23, 453-2), 1 mM DTT, 10% (w/v) glycerol, 0.5 M sucrose (Sigma, Germany, cat. no. S0389) by gel filtration on a PD10 desalting column (Amersham, Sweden, cat. no. 17-0851-01). Aliquots were shock frozen in liquid nitrogen and stored at −80° C.
Activation of Mnk1 and Mnk2a was at a concentration of 2.5 μM of either purified GST-Mnk1 or GST-Mnk2a by incubation with 150 nM pre-activated NHis-ERK2 (see ERK2 assay for preparation) and 50 μM adenosine triphosphate (ATP, Sigma, cat. no. A2699) in a buffer comprising 20 mM N-(2-hydroxyethyl)piperazine-N′-(2-ethanesulfonic acid) (HEPES, Fluka, Germany, cat. no 54459)/potassium hydroxide (KOH, Roth, Germany, cat. no 6751.1) pH 7.4, 10 mM magnesium chloride (MgCl2, Sigma, Germany, cat. no. M2670), 0.25 mM DTT, 0.05% (w/v) polyoxyethylene 20 stearylether (Brij 78, Sigma, Germany, cat. no. P4019) (HMDB buffer) for 45 min at 30° C. […]

Chains of the proteins cited; added tags and fusions are not shown.
UniProt Q9HBH9, whole entry: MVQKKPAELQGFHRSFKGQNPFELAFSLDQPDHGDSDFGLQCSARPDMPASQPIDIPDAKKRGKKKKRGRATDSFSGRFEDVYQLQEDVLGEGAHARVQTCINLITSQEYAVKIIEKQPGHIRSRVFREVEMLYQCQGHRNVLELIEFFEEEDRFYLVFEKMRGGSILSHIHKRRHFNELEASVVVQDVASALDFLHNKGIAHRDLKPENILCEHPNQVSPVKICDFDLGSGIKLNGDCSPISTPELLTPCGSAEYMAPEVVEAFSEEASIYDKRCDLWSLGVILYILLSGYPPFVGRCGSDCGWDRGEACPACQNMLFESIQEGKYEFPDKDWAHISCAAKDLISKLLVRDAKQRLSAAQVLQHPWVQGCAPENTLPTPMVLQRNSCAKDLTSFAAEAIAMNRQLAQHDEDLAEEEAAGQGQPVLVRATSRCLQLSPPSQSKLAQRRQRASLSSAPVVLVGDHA

| Compound | IC50 [nM] |
| --- | --- |
| CO[C@H]1CC[C@H](Oc2cc(F)ccc2Nc2ncnc3sc(C(=O)NCCCN4CCN(C)CC4)c(C)c23)CC1 | 10 |
| CO[C@H]1CCCC[C@@H]1Oc1cc(F)ccc1Nc1ncnc2sc(C(=O)NCCC3CCCN3C)c(C)c12 (stereo partly shown) | 410 |
| CO[C@H]1CC[C@H](Oc2cc(F)ccc2Nc2ncnc3sc(C(=O)NCCCN4CC[C@H](O)C4)c(C)c23)CC1 | 5 |
| CO[C@H]1CCCC[C@@H]1Oc1cc(F)ccc1Nc1ncnc2sc(C(=O)NCCN(C)C)c(C)c12 | 440 |
| CO[C@H]1CC[C@H](Oc2ncccc2Nc2ncnc3sc(C(=O)NCCCN(C)C)c(C)c23)CC1 | 22 |
| Cc1c(C(=O)NC2CCN(C)CC2)sc2ncnc(Nc3ccc(F)cc3O[C@H]3CC[C@H](O)CC3)c12 | 17 |
| Cc1c(C(=O)NCCC2CCCN2C)sc2ncnc(Nc3ccc(F)cc3O[C@H]3CC[C@H](O)CC3)c12 (stereo partly shown) | 9 |
| CO[C@H]1CC[C@H](Oc2cc(F)ccc2Nc2ncnc3sc(C(=O)NC4CCN(C)CC4)c(C)c23)CC1 | 25 |
| CO[C@H]1CCC[C@@H](Oc2ncccc2Nc2ncnc3sc(C(=O)NCCCN(C)C)c(C)c23)C1 | 17 |
| CO[C@H]1CCCC[C@@H]1Oc1cc(F)ccc1Nc1ncnc2sc(C(=O)NCCO)c(C)c12 | 380 |
| Cc1c(C(=O)NCCCN(C)C)sc2ncnc(Nc3ccc(F)cc3OC3CCCC(O)C3)c12 (stereo not shown) | 18 |
| CO[C@@H]1CCCC[C@H]1Oc1cc(F)ccc1Nc1ncnc2sc(C(=O)NCCCN(C)C)c(C)c12 | 19 |
| CO[C@H]1CC[C@H](Oc2cc(F)ccc2Nc2ncnc3sc(C(=O)NCCC4CCCN4C)c(C)c23)CC1 (stereo partly shown) | 14 |
| CO[C@H]1CC[C@H](Oc2cc(F)ccc2Nc2ncnc3sc(C(=O)NCCCN4CC[C@@H](O)C4)c(C)c23)CC1 | 4 |
| CO[C@H]1CCCC[C@@H]1Oc1cc(F)ccc1Nc1ncnc2sc(C(=O)NCCCn3ccnc3)c(C)c12 | 460 |
| CO[C@H]1CC[C@H](Oc2cc(F)ccc2Nc2ncnc3sc(C(=O)NCCCN4CCCC4)c(C)c23)CC1 | 18 |
| Cc1c(C(=O)NCC2COCCN2)sc2ncnc(Nc3ccc(F)cc3O[C@H]3CC[C@H](O)CC3)c12 (stereo partly shown) | 21 |
| CO[C@H]1CC[C@H](Oc2cc(F)ccc2Nc2ncnc3sc(C(=O)NCCCN(C)C)c(C)c23)CC1 | 21 |
| Cc1c(C(=O)NCCO)sc2ncnc(Nc3ccc(F)cc3O[C@@H]3CCC[C@@H](O)C3)c12 (relative stereo) | 17 |
| Cc1c(C(=O)NCCCN2CCOCC2)sc2ncnc(Nc3ccc(F)cc3O[C@H]3CC[C@H](O)CC3)c12 | 12 |
| Cc1c(C(=O)NCCCN(C)C)sc2ncnc(Nc3ccc(F)cc3O[C@H]3C[C@@H]4OCO[C@@H]4C3)c12 | 49 |
| CO[C@H]1C[C@@H](Oc2cc(F)ccc2Nc2ncnc3sc(C(=O)NCCCN(C)C)c(C)c23)C[C@H]1OC (relative stereo) | 130 |
| CO[C@H]1CCCC[C@@H]1Oc1cc(F)ccc1Nc1ncnc2sc(C(=O)NCCCN3CCCC3)c(C)c12 | 260 |
| CO[C@H]1CC[C@H](Oc2ncccc2Nc2ncnc3sc(C(=O)NCCO)c(C)c23)CC1 | 20 |
| CO[C@@H]1CCC[C@@H](Oc2ncccc2Nc2ncnc3sc(C(=O)NCCCN(C)C)c(C)c23)C1 | 65 |
| Cc1c(C(=O)NCCCN(C)C)sc2ncnc(Nc3ccc(F)cc3O[C@@H]3CCCC[C@@H]3O)c12 | 175 |
| CO[C@H]1CCCC[C@@H]1Oc1cc(F)ccc1Nc1ncnc2sc(C(=O)NCCCN3CCOCC3)c(C)c12 | 480 |
| Cc1c(C(=O)NCCCN(C)C)sc2ncnc(Nc3ccc(F)cc3O[C@H]3CCCC[C@H]3O)c12 | 42 |

Reference: patent publication US8754079B2, “Cycloalkyl containing thienopyrimidines for pharmaceutical compositions” (Boehringer Ingelheim International GmbH, priority 2010, dated 2014)
